From publication PMC4410366 (Biochemistry, 2015) come the findings set out here.

The target in the assay is recombinant murine iNOS (Mus musculus, UniProt P29477). Nature of the assay: Irreversible inhibition kinetics. In kind it is biochemical.

One may read the kinact as the rate constant of inactivation at saturating inhibitor. One may read the kinact/KI as the maximal inactivation rate divided by the concentration that gives half of it. As to `CC(=N)NCCC[C@H](N)C(=O)O` [Compound 4, N^5-(1-iminoethyl)-L-ornithine, reference compound], the kinact is 0.00122 s⁻¹ and the kinact/KI was 88.3 M⁻¹ s⁻¹.
